Reference: ChEMBL document CHEMBL1138800, “Synthesis and biological evaluation of novel N6-[4-(substituted)sulfonamidophenylcarbamoyl]adenosine-5'-uronamides as A3 adenosine receptor agonists” (J Med Chem, 2004)

Sequences of proteins named here, by UniProt entry; tags and fusion partners are left off.
UniProt P30542, whole entry: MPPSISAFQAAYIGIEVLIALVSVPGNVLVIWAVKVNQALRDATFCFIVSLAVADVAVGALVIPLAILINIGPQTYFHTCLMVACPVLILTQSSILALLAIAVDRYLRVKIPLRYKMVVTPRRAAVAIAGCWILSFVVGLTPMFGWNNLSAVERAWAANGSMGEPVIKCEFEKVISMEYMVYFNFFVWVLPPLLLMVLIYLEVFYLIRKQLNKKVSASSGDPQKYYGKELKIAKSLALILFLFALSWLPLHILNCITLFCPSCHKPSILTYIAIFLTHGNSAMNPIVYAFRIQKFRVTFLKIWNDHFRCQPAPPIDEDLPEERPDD
UniProt P0DMS8, whole entry, looked up: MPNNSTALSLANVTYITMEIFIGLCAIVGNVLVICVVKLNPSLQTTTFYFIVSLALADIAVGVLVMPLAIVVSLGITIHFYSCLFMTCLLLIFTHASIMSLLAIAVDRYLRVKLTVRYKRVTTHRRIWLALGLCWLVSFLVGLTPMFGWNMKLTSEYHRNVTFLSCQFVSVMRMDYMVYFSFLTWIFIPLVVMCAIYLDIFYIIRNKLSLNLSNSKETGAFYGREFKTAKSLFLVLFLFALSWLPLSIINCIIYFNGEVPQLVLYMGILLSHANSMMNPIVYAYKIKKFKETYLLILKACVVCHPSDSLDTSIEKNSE

How the values were obtained:
Adenosine receptor A2a = Adenosine receptor A2a (Homo sapiens, UniProt P29274); test: Displacement of [3H]CGS-21680 binding to Adenosine A2 receptor expressed in CHO cells; format: cell-based
Adenosine receptor A1 = Adenosine receptor A1 (Homo sapiens, UniProt P30542); test: Displacement of [3H]CHA binding to Adenosine A1 receptor expressed in CHO cells; format: cell-based
[1] = target: Adenosine receptors; A1 & A3 (Homo sapiens) (UniProt P30542+P0DMS8); test: Ratio of binding affinity for Adenosine A1 and Adenosine A3 receptors; format: protein assay

Ratio [1]	SMILES	Ki (Adenosine receptor A2a)	Ki (Adenosine receptor A1)
–	CCNC(=O)[C@H]1OC(n2cnc3c(NC(=O)Nc4ccc(S(=O)(=O)N(C)C(C)C)cc4)ncnc32)C(O)C1O (single isomer, unassigned)	> 1000 nM	325 nM
20.6	C=CCN(C)S(=O)(=O)c1ccc(NC(=O)Nc2ncnc3c2ncn3C2O[C@H](C(=O)NCC)C(O)C2O)cc1 (single isomer, unassigned)	–	–
